Apparent affinities of Ab-14 variants for a coronavirus HR2 peptide

Source: Engelhart et al. 2022 (doi:10.1038/s41597-022-01779-4), MIT Lincoln Laboratory and A-Alpha Bio; data file from the FLAb repository.

Target peptide (SARS-CoV-2 spike, HR2 region): PDVDLGDISGINAS

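AAYL49 was designed without a model: most single CDR substitutions and a random sample of double and triple ones. AlphaSeq pools MATa yeast showing the antibodies with MATalpha yeast showing the peptide. Mating (16 h, 30 °C) was followed by selection of diploids and sequencing of their barcodes. The ratio of observed to expected reads was calibrated, replicate by replicate, on BCL2-family standards whose Kd was known from biolayer interferometry. The assay was run in three technical replicates.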

The variants keep the light chain, the linker and the frameworks of Ab-14 (scFv order VH, three GGGGS repeats, VL).
VH: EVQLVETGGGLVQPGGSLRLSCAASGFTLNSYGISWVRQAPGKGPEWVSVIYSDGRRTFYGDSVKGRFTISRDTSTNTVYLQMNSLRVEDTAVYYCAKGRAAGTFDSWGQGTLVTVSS
VL: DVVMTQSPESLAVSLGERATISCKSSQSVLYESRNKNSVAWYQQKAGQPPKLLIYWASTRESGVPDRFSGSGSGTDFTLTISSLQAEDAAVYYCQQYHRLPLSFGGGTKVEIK

Each variant's VH is given in full. The read-out is the apparent dissociation constant on a log10 scale (nM): the lower, the stronger. Replicates are averaged; those with no signal do not enter the mean. An entry "not detected" has no value in the source: the pair was not observed among the diploids in any replicate. This suggests poor binding but is not conclusive. For reference, the parent read 0.65 as the reference entry and 4.11 (one replicate of three) as a member of this library. Empty control strains, which show no peptide, gave a signal in 15% of pairings with library AAYL49; the median was 4.06 and 95% of these signals were weaker than 2.83. No background was subtracted.

| VH | mean log10 Kd (nM) | detected |
|---|---|---|
| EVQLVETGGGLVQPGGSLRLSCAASGFTLNSYKISWVRQAPGKGPEWVSVIYFDGVRTFYGDSVKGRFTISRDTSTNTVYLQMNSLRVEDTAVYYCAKGRAAGTFDSWGQGTLVTVSS | not detected | 0/3 |
| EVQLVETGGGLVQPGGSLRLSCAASGFTLNSYGISWVRQAPGKGPEWVSVIYQDTRRTFGGDSVKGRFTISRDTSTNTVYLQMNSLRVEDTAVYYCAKGRAAGTFDSWGQGTLVTVSS | not detected | 0/3 |
| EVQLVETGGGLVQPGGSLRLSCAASGFTLISYGISWVRQAPGKGPEWVSVIYSDGRRTFYGDSRKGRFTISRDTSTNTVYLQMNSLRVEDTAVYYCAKGQAAGTFDSWGQGTLVTVSS | 5.11 | 1/3 |
| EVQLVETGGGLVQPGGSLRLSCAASGFTLNSYGISWVRQAPGKGPEWVSNIYSDGRMTFYGDSVKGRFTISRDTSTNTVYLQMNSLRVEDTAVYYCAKGRAAGDFDSWGQGTLVTVSS | 4.59 | 2/3 |
| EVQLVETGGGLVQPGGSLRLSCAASGFTLNSYGISWVRQAPGKGPEWVSVIYSDGRRTFYNDSVKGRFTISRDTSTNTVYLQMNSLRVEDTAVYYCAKGRAIGTVDSWGQGTLVTVSS | 4.34 | 3/3 |
| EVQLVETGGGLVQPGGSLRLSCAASGFTLNSYGIVWVRQAPGKGPEWVSVIYSCGRRTYYGDSVKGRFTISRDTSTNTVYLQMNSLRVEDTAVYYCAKGRAAGTFDSWGQGTLVTVSS | 5.01 | 1/3 |
| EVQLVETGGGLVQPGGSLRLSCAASGFTLGSYGISWVRQAPGKGPEWVSVIYSAGRRTFYRDSVKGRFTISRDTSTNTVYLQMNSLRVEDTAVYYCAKGRAAGTFDSWGQGTLVTVSS | not detected | 0/3 |
| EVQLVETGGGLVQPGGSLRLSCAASGFTLNSYGISWVRQAPGKGPEWVSVIYSDGRRQFEGDSVKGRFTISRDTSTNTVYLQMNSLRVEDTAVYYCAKGMAAGTFDSWGQGTLVTVSS | not detected | 0/3 |
| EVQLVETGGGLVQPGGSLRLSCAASGLTLNQYGISWVRQAPGKGPEWVSVIYSDGRRTFYGDSVKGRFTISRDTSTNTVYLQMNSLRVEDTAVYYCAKGRQAGTFDSWGQGTLVTVSS | 3.38 | 2/3 |
| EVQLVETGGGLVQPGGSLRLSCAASGCTLNSYGIAWVRQAPGKGPEWVSVIYSDGRRTFYGDSVKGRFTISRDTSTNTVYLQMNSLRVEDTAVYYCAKGRAKGTFDSWGQGTLVTVSS | not detected | 0/3 |
| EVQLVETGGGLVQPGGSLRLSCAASGFTYNSNGISWVRQAPGKGPEWVSVIYSDGRRTFYGDSVKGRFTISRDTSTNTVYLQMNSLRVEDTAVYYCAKGRAAGTCDSWGQGTLVTVSS | 3.72 | 1/3 |

Continued, with the values leading:

| mean log10 Kd (nM) | detected | VH |
|---|---|---|
| not detected | 0/3 | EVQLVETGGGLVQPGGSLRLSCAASGFTLNSYGISWVRQAPGKGPEWVSNIYSDGRQTFIGDSVKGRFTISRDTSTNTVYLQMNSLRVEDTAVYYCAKGRAAGTFDSWGQGTLVTVSS |
| 0.80 | 3/3 | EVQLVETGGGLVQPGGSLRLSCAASGFTLNSYGISWVRQAPGKGPEWVSVIYSDGRRTFYGDSVEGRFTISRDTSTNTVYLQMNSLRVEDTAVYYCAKGRAAGGTDSWGQGTLVTVSS |
| not detected | 0/3 | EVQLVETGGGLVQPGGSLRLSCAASGLTLNSYGISWVRQAPGKGPEWVSVCYSDGRSTFYGDSVKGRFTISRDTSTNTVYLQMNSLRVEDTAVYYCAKGRAAGTFDSWGQGTLVTVSS |
| 4.44 | 1/3 | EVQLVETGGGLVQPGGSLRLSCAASGFTLNSYGISWVRQAPGKGPEWVSVIYSDGRRTQYIDSVKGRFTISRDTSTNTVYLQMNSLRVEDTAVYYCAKGRAAGTKDSWGQGTLVTVSS |
| not detected | 0/3 | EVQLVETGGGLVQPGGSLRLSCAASGFTLNSWGISWVRQAPGKGPEWVSVIYSDGRRTFYGFSVKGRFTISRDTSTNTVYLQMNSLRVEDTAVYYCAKGRAAGTFDSWGQGTLVTVSS |
| not detected | 0/3 | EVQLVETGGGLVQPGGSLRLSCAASGFTLNSYGISWVRQAPGKGPEWVSVIYSDGRITFYGDSVKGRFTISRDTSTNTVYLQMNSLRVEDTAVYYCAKNRAAGTFDSWGQGTLVTVSS |
| 4.02 | 2/3 | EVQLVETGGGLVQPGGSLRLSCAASGFTLNSYGISWVRQAPGKGPEWVSVIYSDGRVTFYGGSVKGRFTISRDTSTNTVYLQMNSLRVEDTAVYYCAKGRAAGTFYSWGQGTLVTVSS |
| not detected | 0/3 | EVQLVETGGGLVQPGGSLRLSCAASGFTLNSAGISWVRQAPGKGPEWVSVISSDGRRTFQGDSVKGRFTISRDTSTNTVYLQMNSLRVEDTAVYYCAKGRAAGTFDSWGQGTLVTVSS |
| not detected | 0/3 | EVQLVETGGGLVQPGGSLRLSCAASGFTLNSYGISWVRQAPGKGPEWVSVIYSDGRRGDYGDSVKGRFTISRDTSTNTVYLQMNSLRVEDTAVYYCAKGRAAGTFDSWGQGTLVTVSS |
| 5.22 | 1/3 | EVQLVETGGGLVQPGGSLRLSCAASGFTLNMYGISWVRQAPGKGPEWVSVIYSDGRRTFDGDSVKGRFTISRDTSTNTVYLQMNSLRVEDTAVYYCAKGRAAGTFDSWGQGTLVTVSS |
| not detected | 0/3 | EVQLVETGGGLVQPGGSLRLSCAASGFTLNSYGISWVRQAPGKGPEWVSVIYSFGWRTFYGDSVMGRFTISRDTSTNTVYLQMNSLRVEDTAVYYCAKGRAAGTFDSWGQGTLVTVSS |
| not detected | 0/3 | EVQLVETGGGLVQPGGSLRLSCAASGFTLNSYGISWVRQAPGKGPEWVSLIYSDGRRTFTGDQVKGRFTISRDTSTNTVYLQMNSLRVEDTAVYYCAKGRAAGTFDSWGQGTLVTVSS |

Picked from the list: the 2 lowest averages where every replicate gave a value.

{"VH": "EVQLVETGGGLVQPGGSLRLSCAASGFTLNSYGISWVRQAPGKGPEWVSVIYSDGRRTFYGDSVEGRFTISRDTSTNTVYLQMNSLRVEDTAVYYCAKGRAAGGTDSWGQGTLVTVSS", "mean log10 Kd (nM)": "0.80", "detected": "3/3"}
{"VH": "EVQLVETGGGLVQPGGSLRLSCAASGFTLNSYGISWVRQAPGKGPEWVSVIYSDGRRTFYNDSVKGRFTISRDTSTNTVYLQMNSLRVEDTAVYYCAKGRAIGTVDSWGQGTLVTVSS", "mean log10 Kd (nM)": "4.34", "detected": "3/3"}